The values that follow are results of earlier work, collected in US4956171A, “Transdermal drug delivery using a dual permeation enhancer and method of performing the same” (Paco Pharmaceutical Services, Inc., priority 1989, dated 1990).

For data set [1] the following is noted: relative to morphine; background statement; cited from earlier work.
The conditions of data set [2]: on over dosage; cited from earlier work.

As for `CN1CC[C@]23c4c5ccc(O)c4O[C@H]2C(=O)CC[C@H]3[C@H]1C5` [hydromorphone], in data set [1], the “analgesic activity, times more potent than morphine” value is “about 7 times”. In data set [2], the side effects result was “severe side effects, particularly respiratory depression”.
